Here are results for three compounds from PMC10710878 (Journal of receptor and signal transduction research, 2022).

Sequences of proteins named here, by UniProt entry; tags and fusion partners are left off.
UniProt P22909, whole entry: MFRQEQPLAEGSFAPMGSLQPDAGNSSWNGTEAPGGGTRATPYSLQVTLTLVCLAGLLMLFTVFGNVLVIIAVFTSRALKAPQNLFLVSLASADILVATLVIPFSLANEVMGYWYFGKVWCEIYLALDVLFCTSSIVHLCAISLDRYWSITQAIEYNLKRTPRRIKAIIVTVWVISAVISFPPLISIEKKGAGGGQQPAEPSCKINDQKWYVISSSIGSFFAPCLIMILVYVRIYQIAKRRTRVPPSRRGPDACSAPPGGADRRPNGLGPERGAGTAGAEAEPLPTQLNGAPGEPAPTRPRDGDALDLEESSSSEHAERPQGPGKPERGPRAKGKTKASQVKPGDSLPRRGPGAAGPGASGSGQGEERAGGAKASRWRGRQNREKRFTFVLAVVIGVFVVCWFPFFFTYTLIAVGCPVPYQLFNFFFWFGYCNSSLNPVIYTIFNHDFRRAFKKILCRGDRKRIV

Molecules are shown by their SMILES. Read-outs that look alike come from different tables or passages of the source.

The target of this experiment is α2A-AR (Rattus norvegicus, UniProt P22909). It counts as cell-based.

On to `Cc1cc(C(C)(C)C)cc(C)c1CC1=NCCN1` [xylometazoline], for which the Kb was 56.2 nM.
Same read-out and setting: the value for `COc1cc2nc(N3CCN(C(=O)C4CCCO4)CC3)nc(N)c2cc1OC` (stereo not drawn) [terazosin] was 5010 nM.
As a reminder, the EC50 is the concentration needed to bring the measured effect to its halfway point. In the case of `CNC[C@H](O)c1ccc(O)c(O)c1` [EPI, epinephrine], the 50% effective concentration (EC50) amounted to 95 ± 16 nM (EPI EC50, control, no RS79948); 423 ± 148 nM (EPI EC50, pre-treatment with 3nM RS79948); 1210 ± 204 nM (EPI EC50, pre-treatment with 10nM RS79948); 3220 ± 1950 nM (EPI EC50, pre-treatment with 30nM RS79948).
